Experimental data from PubChem BioAssay AID504842 (National Center for Advancing Translational Sciences (NCATS), 2011).
The entries are a selection whose mix differs from that of the whole data set. Active and inactive are the calls of the source. Calls come from the whole dose curve; as a rule, active = well fitted inhibition curve with a large enough effect; inconclusive = small, poorly fitted or top-dose-only effect; inactive = flat fitted curve, though single readings scatter.

test system: Chaperonin Mm-Cpn (Methanococcus maripaludis); experiment: Inhibitors of TCP-1 ring complex (TRiC) of Methanococcus maripaludis (MmCpn): qHTS; settings: purified Mm-Cpn ATPase, ADP Transcreener TR-FRET; at 76.9 µM (top of the series); note: nearly all actives have a fitted effect of over 80% in size
Description: The eukaryotic chaperonin TRiC (for TCP-1 ring complex) is an essential and conserved chaperone required for the folding and activation of 10-15% of the proteins encoded by the human genome. […] The TRiC complex consist of two stacked 7-9 membered rings, each containing a central cavity. Substrates are folded within the cavity in an ATP-dependent manner. TRiC is a complex of eight different, essential proteins. As each of the genes encoding the eight subunits is essential for cell viability and no protocol has been developed to over-express this enzyme to high levels. That is why several groups studying the TRiC chaperonin have turned to the archaeal homolog of TRiC, Methanococcus maripaludis (Mm-CPN), and have used this enzyme as a model system for the study of the type II chaperonin family. Small molecule inhibitors of the Mm-CPN enzyme would be extremely useful to study the mechanism of chaperonin activity. Importantly, TRiC and Mm-CPN both require ATP hydrolysis for function. Furthermore, the ATP binding sites are highly conserved among these type II chaperonins. This provides us with an easy, well tested and straightforward assay to identify inhibitors of chaperonin activity. The Mm-CPN assay was developed in 1536-well plate format using the HTRF Transcreener ADP assay kit (Cisbio, Bedford, MA). This assay applied the time resolved fluorescence resonance energy transfer (TR-FRET) principle. ATP in the presence of Mm-CPN is converted to ADP + Pi. An antibody labeled with Eu3+-Cryptate specific and bound to ADP labeled with […] (d2) competes with the unlabeled ADP generated by Mm-CPN. The resulting TR-FRET signal is inversely proportional to the concentration of ADP in the sample. In this assay a reduction in TR-FRET signal is observed with ATP turnover. NIH Chemical Genomics Center [NCGC] NIH Molecular Libraries Probe Centers Network [MLPCN] MLPCN Grant: DA030554-01A1 Assay Submitter (PI): Judith Frydman, Stanford University
Purified Mm-CPN was supplied by the laboratory of Dr. Judith Frydman. Protein samples were stored at -80C as single use aliquots. Protein was thawed in ambient temperature water bath and placed on ice once thawed. Buffer was prepared fresh day of screen. The buffer composition below was used to prepare the working solution of the Mm-CPN protein and ATP substrate. The buffer is comprised of 30 mM TRIS pH 7.4, 100mM KCl, 5mM MgCl2, and 1mM DTT. A final concentration of 25nM Mm-CPN and 10uM ATP per well were used in the screen. Instructions according to the manufacturer were followed for the ADP Transcreener kit. Used 1536 well Greiner white, medium binding (MB), solid bottom plates. Plates were read on the PerkinElmer EnVision plate reader using Excitation = 320 nm and Emission = […], 665 nm. Protocol- 1.Dispense 1.5ul per well of working [Mm-CPN] = 50nM (or 75 ng / well) 2.Spin plate at 1000 rpm for 30 seconds 3.23nl of compound transferred per well 4.Incubate at 37degC for 10 minutes 5.Dispense 1.5ul per well of working [ATP] = 20uM 6.Incubate at 37degC for 30 minutes 7.Dispense 3ul per well of Anti-ADP Cryptate / ADP-d2 mix (prepared as instructed by Cisbio) 8.Incubate at ambient for 30 minutes 9.Read using EnVision
% is set by controls: 0 for no effect and ±100 for the full control effect.

Q: With `Cc1nn(-c2ccccc2)c2c1P(=O)(N1CCOCC1)N(C)C(c1ccccc1)=N2` (configuration not stated) as the molecule, how does the activity, negative = inhibition read?
A: inactive: -0.936%

Q: `CN(C)C1(CNC(=O)c2ccc(S(C)(=O)=O)cc2)CCCCC1` was tested. Which activity, negative = inhibition did it give?
A: inactive: -0.958%

Q: How did the activity, negative = inhibition turn out when `O=C(/C=C/c1ccccc1)OC1CN2CCC1CC2` (configuration not stated) was run?
A: inactive: -2.57%

Q: How did the activity, negative = inhibition turn out when `COc1ccccc1CNC(=O)COC(=O)C(O)(c1ccccc1)c1ccccc1` was run?
A: inactive: 4.25%

Q: How did the activity, negative = inhibition turn out when `CC(C)/C=N\N=C(\N)N[N+](=O)[O-]` was run?
A: inactive: 0.37%

Q: For `CN(C(=O)Cc1ccc(Cl)c(Cl)c1)[C@@H]1CCCC[C@H]1N1CCCC1`, which activity, negative = inhibition is on record?
A: inactive: -6.11%

Q: With `O=[As](O)(c1ccccc1Br)c1ccccc1Br` as the molecule, how does the activity, negative = inhibition read?
A: inactive: -2.63%

Q: How did the activity, negative = inhibition turn out when `CCOP(=O)(NC(=NC(C)c1ccccc1)NC(C)c1ccccc1)OCC` (configuration not stated) was run?
A: inactive: 0.528%

Q: With `O=P1(Nc2ccccn2)COc2ccccc2OC1` as the molecule, how does the activity, negative = inhibition read?
A: inactive: 0.0467%

Q: With `CCC1=CC2Cc3nc4ccc(Cl)cc4c(N)c3C(C1)C2` (configuration not stated) as the molecule, how does the activity, negative = inhibition read?
A: inactive: -0.188%

Q: `CCOP(=O)(Nc1ccc(C)cn1)OCC` was tested. Which activity, negative = inhibition did it give?
A: inactive: 1.23%

Q: How did the activity, negative = inhibition turn out when `CC(C)(C)C(=O)NC(Sc1ncccn1)C(Cl)(Cl)Cl` (configuration not stated) was run?
A: inactive: 1.15%

Q: With `Clc1n[nH]nc1-c1nn[nH][15n]1` as the molecule, how does the activity, negative = inhibition read?
A: inactive: 1.45%

Q: How did the activity, negative = inhibition turn out when `O=C(OC1CN2CCC1CC2)c1cccc([N+](=O)[O-])c1` (configuration not stated) was run?
A: inactive: 0.187%

Q: Which activity, negative = inhibition does the source give for `CCOC(=O)c1ccc(NC(=O)C(C)(CCl)SC)cc1` (configuration not stated) here?
A: inactive: -2.69%

Q: Which activity, negative = inhibition does the source give for `CCC(C)N(CC(C)C)C(=S)SC(NC(C)=O)C(Cl)(Cl)Cl` (configuration not stated) here?
A: inactive: -1.63%

Q: For `COP1(=S)c2c(C)nn(CCC#N)c2N=C(c2ccc(F)cc2)N1C` (configuration not stated), which activity, negative = inhibition is on record?
A: inactive: 0.943%

Q: For `O=C(Nc1ccncc1[N+](=O)[O-])c1ccc([N+](=O)[O-])cc1[N+](=O)[O-]`, which activity, negative = inhibition is on record?
A: inactive: 0.413%

Q: `O=C(COc1ccccc1)OC1CN2CCC1CC2` (configuration not stated) was tested. Which activity, negative = inhibition did it give?
A: inactive: -1.13%

Q: How did the activity, negative = inhibition turn out when `CCOC(=O)Nc1cccc([As](=O)(O)O)c1` was run?
A: inactive: -3.69%

Q: With `O=P(Nc1ccccn1)(c1cccc2ccccc12)c1cccc2ccccc12` as the molecule, how does the activity, negative = inhibition read?
A: inactive: -3.43%

Q: Which activity, negative = inhibition does the source give for `Cc1cc(SC(NC=O)C(Cl)(Cl)Cl)ncn1` (configuration not stated) here?
A: inactive: -0.424%

Q: With `O=[N+]([O-])c1ccc(Nc2ccc(Oc3ccc([N+](=O)[O-])cc3[N+](=O)[O-])cc2)c([N+](=O)[O-])c1` as the molecule, how does the activity, negative = inhibition read?
A: inactive: 0.652%

Q: With `CCOC(=O)Nc1ccc([As](=O)(O)O)c(O)c1` as the molecule, how does the activity, negative = inhibition read?
A: inactive: 0.665%

Q: For `Cc1cc(SC(NC(=O)c2ccccc2)C(Cl)(Cl)Cl)nc(C(C)C)n1` (configuration not stated), which activity, negative = inhibition is on record?
A: inactive: -2.23%

Q: Which activity, negative = inhibition does the source give for `CCCCOc1ccc(C(=O)NCC2(N3CCCCC3)CCCCC2)cc1OC` here?
A: inactive: 1.96%

Q: Which activity, negative = inhibition does the source give for `ClCCSc1nnc(-c2cccnc2)o1` here?
A: inactive: 1.97%
